These are literature values, as cited in article PMC6008586, “Analysis of transition state mimicry by tight binding aminothiazoline inhibitors provides insight into catalysis by human O-GlcNAcase” (Chemical Science, 2016).

Structures are written as SMILES.

The conditions of this series: reference compound with known pKa.

Broadly, the pKa is the negative logarithm of the acid dissociation constant. With `O=[N+]([O-])c1ccc(O)cc1[N+](=O)[O-]`, the pKa is 5.42.
